Test results reported in patent US20160331708A1 (priority 2014, published 2016).

System: Bacillus subtilis 168
Experiment: Antibiotic MIC tests in microtiter plates
Settings: MIC of streptomycin in the presence of the compound at its tested concentration (0.9-2.7 mM)

Question: Which MIC with streptomycin does the source give for Benzoic acid here?
Answer: Its MIC with streptomycin is 31.2 µg/mL.
